Experiments:
PNPLA3 = test: RNA-seq of compound-treated primary human hepatocytes: PNPLA3 expression; assay type: cell-based
PNPLA5 = test: RNA-seq of compound-treated primary human hepatocytes: PNPLA5 expression; assay type: cell-based
From the text: This protocol is a modified version of the following protocols: MagMAX mirVana Total RNA Isolation Kit User Guide (Applied Biosystems # MAN0011131 Rev B.0), NEBNext Poly(A) mRNA Magnetic Isolation Module (E7490), and NEBNext Ultra Directional RNA Library Prep Kit for Illumina (E7420) (New England Biosystems # E74901).
All obtained reads from each sample were mapped against the human genome (hg19 build) using STAR_2.5.2b, which allows mapping across splice sites by reads segmentation (Dobin et al., Bioinformatics (2012) 29 (1): 15-21, which is hereby incorporated by reference in its entirety). The uniquely mapped reads were subsequently assembled into transcripts guided by reference annotation (RefSeq gene models) (Pruitt et al., Nucleic Acids Res. 2012 January; 40(Database issue): D130-D35, which is incorporated by reference in its entirety) with Cuffnorm v2.2.1 (Trapnell et al., Nature Protocols 7, 562-578 (2012), which is hereby incorporated by reference in its entirety). The expression level of each gene was quantified with normalized FPKM (fragments per kilobase of exon per million mapped fragments). […]
RNA-seq was performed to determine the effects of the compounds on PNPLA3 expression in hepatocytes. Fold change was calculated by dividing the level of expression in the cell system that had been perturbed by the level of expression in an unperturbed system. […]

B1: BMP2 (protein, UniProt P12643 283-396, looked up)
Bone morphogenetic protein 2: QAKHKQRKRLKSSCKRHPLYVDFSDVGWNDWIVAPPGYHAFYCHGECPFPLADHLNSTNHAIVQTLVNSVNSKIPKACCVPTELSAISMLYLDENEKVVLKNYQDMVVEGCGCR
For B1, the “Upregulation of PNPLA3 in the RNA-seq study” value (PNPLA3) was “best upregulators” and the “Upregulation of PNPLA5 in the RNA-seq study” value (PNPLA5) was “best upregulators”.

Source: patent US20200208128A1, “METHODS OF TREATING LIVER DISEASES” (CAMP4 THERAPEUTICS CORPORATION, priority 2017, published 2020)
